The record followed here is patent US6043072A, “Nucleic acids encoding Taxus geranylgeranyl diphosphate synthase, and methods of use” (Washington State University Research Foundation, priority 1998, dated 2000).

Chains of the proteins cited; added tags and fusions are not shown. Residues count along the entry.
UniProt Q9ZPM3, 99-393: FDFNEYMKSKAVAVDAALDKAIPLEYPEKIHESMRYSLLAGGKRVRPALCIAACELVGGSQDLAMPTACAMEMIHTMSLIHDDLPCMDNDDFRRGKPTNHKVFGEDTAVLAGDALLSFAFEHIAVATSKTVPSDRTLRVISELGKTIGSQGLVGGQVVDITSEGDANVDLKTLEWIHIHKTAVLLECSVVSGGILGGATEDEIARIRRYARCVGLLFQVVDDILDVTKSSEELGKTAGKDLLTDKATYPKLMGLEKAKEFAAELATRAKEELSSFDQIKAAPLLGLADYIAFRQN

In the experiment the target is T. canadensis GGPP synthase (Taxus canadensis, UniProt Q9ZPM3). The experiment can be described thus: Kinetic evaluation of recombinant GGPP synthase (standard prenyltransferase assay, double reciprocal plots). The experiment is classed as biochemical. Conditions: co-substrate at 12.5 and 25 mM; IPP and Mg^2+ at saturation. As to the method: The reaction was quenched by the addition of 300 mil of methanol:conc. HCl (4:1, v/v), and the allylic diphosphate products were solvolyzed (50, 51) upon further incubation at 42° C. for 20 min. The resulting solvolysis products were extracted twice with 1 ml pentane, and were either analyzed by liquid scintillation counting (in toluene:ethanol (7:3, v/v) containing 0.4% Omnifluor (DuPont NEN); ^14 C counting efficiency=96.0%) or concentrated on ice under a gentle stream of Ar to […] for further analysis.

Turning to `CC(C)=CCOP(=O)(O)OP(=O)(O)O` [DMAPP, dimethylallyl diphosphate], the “relative velocities of the reaction with allylic co-substrates” value was 33%.
